Experimental data as given in ChEMBL document CHEMBL1154180, “Pyrazole-based arylalkyne cathepsin S inhibitors. Part II: optimization of cellular potency” (Bioorg Med Chem Lett, 2009).

By UniProt entry, the sequences of proteins in these tests, tags left out.
UniProt P25774, whole entry: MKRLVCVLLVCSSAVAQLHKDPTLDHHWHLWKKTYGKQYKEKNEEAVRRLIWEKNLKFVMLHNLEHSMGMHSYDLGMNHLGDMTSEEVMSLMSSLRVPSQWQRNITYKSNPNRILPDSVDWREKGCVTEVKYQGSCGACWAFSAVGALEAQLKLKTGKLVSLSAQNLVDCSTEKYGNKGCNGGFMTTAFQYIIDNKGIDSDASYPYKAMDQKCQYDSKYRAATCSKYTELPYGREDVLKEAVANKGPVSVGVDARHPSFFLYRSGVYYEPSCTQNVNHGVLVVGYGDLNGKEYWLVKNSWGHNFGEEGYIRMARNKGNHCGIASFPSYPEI

Target: Cathepsin S (Homo sapiens, UniProt P25774)
Test: Inhibition of cathepsin S in human JY cells assessed as invariant chain li degradation by Western blotting
Format: cell-based

CC(NCc1ccc(C#Cc2cc(-c3nn(CCCN4CCOCC4)c4c3CN(S(C)(=O)=O)CC4)ccc2Cl)cc1)c1ccccc1 (stereo unspecified)
IC50: 1 µM
